## Reported melting point values for industrial, environmental and drug-like chemicals

Data: OPERA 2.9 data sets, kmansouri/OPERA on GitHub.

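The numbers are reported measurements, compiled and curated for the OPERA QSAR suite. One number stands for a compound and property, with no spread given. Method, purity and exact conditions of the single measurements are not given. A value may pool stereoisomers or salt forms, and the file does not say which form was measured. Some entries may be limits or estimates that an upstream database listed as plain numbers.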

Melting points are in °C.

CCC(=O)Nc1ccc(C)c(N)c1 [N-(3-Amino-4-methylphenyl)propanamide] has mp 122 °C.
O=S(=O)([O-])c1cccc2c(S(=O)(=O)[O-])cccc12.[Na+].[Na+] [1,5-Naphthalenedisulfonic acid, disodium salt] has mp 215 °C.
CNC(=O)c1ccc(Cl)c(N)c1 [3-Amino-4-chloro-N-methylbenzamide] has mp 145 °C.
Nc1sc2c(c1C(=O)c1ccc(Cl)cc1)CCCC2 [T-62] has mp 140 °C.
CCOc1cc(C=O)cc(Cl)c1O [3-chloro-5-ethoxy-4-hydroxybenzaldehyde] has mp 146 °C.
O=S(=O)(O)CCO [2-Hydroxyethanesulfonic acid] has mp 36 °C.
COc1cc(N)c([N+](=O)[O-])cc1OC [4,5-dimethoxy-2-nitroaniline] has mp 175 °C.
O=C(CCl)N1CCc2ccccc21 [2-Chloro-1-(2,3-dihydro-1H-indol-1-yl)ethan-1-one] has mp 119 °C.
O=c1[nH]nc(Br)c(=O)[nH]1 has mp 189 °C.
Cc1cc(Br)ccc1SCC(=O)O [[(4-Bromo-2-methylphenyl)sulfanyl]acetic acid] has mp 126 °C.
O=C(O)CSCc1ccc(Cl)cc1 [[(4-chlorobenzyl)thio]acetic acid] has mp 58 °C.
CCc1nnc(-c2ccccn2)nc1CC [5,6-Diethyl-3-(pyridin-2-yl)-1,2,4-triazine] has mp 69.5 °C.
CC(C)CN(CC(C)C)C(=O)CC(=O)N(CC(C)C)CC(C)C [N,N,N',N'-Tetraisobutyl-malonamide] has mp 52 °C.
COc1cccc(OC)c1OCC(=O)O [(2,6-Dimethoxy-phenoxy)-acetic acid] has mp 80.5 °C.
COc1ccc(-c2nn(-c3ccccc3)cc2C=CC(=O)O)cc1 has mp 239 °C.
OCCc1nc2ccccc2s1 [2-(1,3-Benzothiazol-2-yl)ethan-1-ol] has mp 42 °C.
NCCCN1CCN(c2ncccn2)CC1 [3-(4-pyrimidin-2-ylpiperazin-1-yl)propan-1-amine] has mp 73 °C.
N#CCC(=O)c1cccc([N+](=O)[O-])c1 [3-(3-Nitrophenyl)-3-oxopropanenitrile] has mp 150 °C.
O=C(O)c1ccc(-c2nc3ccccc3s2)o1 [5-(1,3-Benzothiazol-2-yl)furan-2-carboxylic acid] has mp 184 °C.
CS(=O)(=O)Nc1cccc(C(=O)O)c1 [3-(Methylsulfonamido)benzoic Acid] has mp 231 °C.
C=CC(=O)OCCCCCCCCCCCCCCCCCCCCCC [Docosyl acrylate] has mp 30 °C.
Cc1ccc(NC(=O)CC#N)cc1 [2-cyano-N-(4-methylphenyl)acetamide] has mp 189 °C.
COC(=O)C(=O)CC(=O)c1ccc(OC)cc1 [methyl 4-(4-methoxyphenyl)-2,4-dioxobutanoate] has mp 105 °C.
O=C(O)C=Cc1ccc(SC(F)(F)F)cc1 [3-{4-[(Trifluoromethyl)sulfanyl]phenyl}prop-2-enoic acid] has mp 213 °C.
N=C(NO)c1ccc([N+](=O)[O-])cc1 [4-Nitrobenzamidoxime] has mp 188 °C.
Cc1ccc2[nH]nc(C(=O)O)c2c1 [5-Methylindazole-3-carboxylic acid] has mp 274 °C.
CCCCCCCCCCCCCCCCCC(=O)OCC1CCCO1 (stereo not given) [Tetrahydrofurfuryl stearate] has mp 22 °C.
CN(C)S(=O)(=O)c1ccc(N)c(N)c1 [3,4-diamino-N,N-dimethylbenzenesulfonamide] has mp 194 °C.
COc1cc(C=O)cc(OC)c1OCc1ccccc1 [Benzaldehyde, 3,5-dimethoxy-4-(phenylmethoxy)-] has mp 63 °C.
O=C(O)CCc1ccncc1 [3-(pyridin-4-yl)propanoic acid] has mp 210 °C.
COc1ccc2cc(C(=O)O)c(C)nc2c1 [7-methoxy-2-methylquinoline-3-carboxylic acid] has mp 210 °C.
Cl.O=C(CCCN1CCC(O)(c2cccc(C(F)(F)F)c2)CC1)c1ccc(F)cc1 [Trifluperidol hydrochloride] has mp 212 °C.
Cc1cc(Cl)c(Cl)cc1C1=NN(c2ccc(S(=O)(=O)CCO)cc2)CC1 has mp 189 °C.
CCc1ccccc1NC(=O)CCl [2-chloro-N-(2-ethylphenyl)acetamide] has mp 107 °C.
O=C(O)CCNc1ccccc1[N+](=O)[O-] [3-[(2-nitrophenyl)amino]propanoic acid] has mp 145 °C.
Nc1nc(-c2cccc(Cl)c2)cs1 [4-(3-chlorophenyl)thiazol-2-amine] has mp 126 °C.
Cn1c(N)c(NC=O)c(=O)n(C)c1=O has mp 252 °C.
O=C(O)CSc1nnc(-c2ccccc2)o1 [(5-Phenyl-[1,3,4]oxadiazol-2-ylsulfanyl)-acetic acid] has mp 170 °C.
CCCCCCCC/C=C\CCCCCCCCOC(=O)C(CC(=O)[O-])S(=O)(=O)[O-].[Na+].[Na+] (stereo partly drawn) [Disodium (Z)-1-(octadec-9-enyl) 2-sulphonatosuccinate] has mp 264 °C.
C=CCn1c(N)c(C(=O)OCC)sc1=S has mp 119 °C.
CCOc1ccc(S(=O)(=O)NN)cc1 [4-ethoxybenzenesulfonohydrazide] has mp 115 °C.
NC(=O)N1CCCC(C(=O)O)C1 (stereo not given) [1-Carbamoylpiperidine-3-carboxylic acid] has mp 183 °C.
CN(C)S(=O)(=O)c1ccc(NCCO)c(C(=O)O)c1 [5-(Dimethylsulfamoyl)-2-[(2-hydroxyethyl)amino]benzoic acid] has mp 177 °C.
Nc1c(-c2ccccc2)nc2ccccn12 [Imidazo(1,2-a)pyridine, 3-amino-2-phenyl-] has mp 154 °C.
COc1ccc(Cl)cc1C(C)=O [1-(5-Chloro-2-methoxyphenyl)ethanone] has mp 34 °C.
Cc1n[nH]c(NN)nc1=O [3-hydrazino-6-methyl-1,2,4-triazin-5-ol] has mp 238 °C.
Nc1ccnn1Cc1ccncc1 [1-[(Pyridin-4-yl)methyl]-1H-pyrazol-5-amine] has mp 220 °C.
O=C(O)CC1Sc2ccc(Cl)cc2NC1=O (stereo not given) has mp 241 °C.
CCCn1c(-c2ccncc2)n[nH]c1=S [4-propyl-5-pyridin-4-yl-4H-1,2,4-triazole-3-thiol] has mp 259 °C.
CCc1cccc(OCC(=O)O)c1 [2-(3-ethylphenoxy)acetic acid] has mp 68 °C.
Cc1ncc([N+](=O)[O-])cc1C(=O)O [2-methyl-5-nitronicotinic acid] has mp 212 °C.
OCCC(F)(F)C(F)(F)C(F)(F)C(F)(F)C(F)(F)C(F)(F)F [3,3,4,4,5,5,6,6,7,7,8,8,8-Tridecafluorooctanol] has mp -33.09 °C.
Cc1c(CCl)cc(C(=O)O)cc1CCl [3,5-bis(chloromethyl)-4-methylbenzoic acid] has mp 158 °C.
O=C(O)c1ccccc1NCCO [Benzoic acid, 2-((2-hydroxyethyl)amino)-] has mp 143 °C.

Extract of 9 entries:

Cc1ccc2[nH]nc(C(=O)O)c2c1 [5-Methylindazole-3-carboxylic acid] has mp 274 °C.
C=CCn1c(N)c(C(=O)OCC)sc1=S has mp 119 °C.
COc1cccc(OC)c1OCC(=O)O [(2,6-Dimethoxy-phenoxy)-acetic acid] has mp 80.5 °C.
O=c1[nH]nc(Br)c(=O)[nH]1 has mp 189 °C.
OCCC(F)(F)C(F)(F)C(F)(F)C(F)(F)C(F)(F)C(F)(F)F [3,3,4,4,5,5,6,6,7,7,8,8,8-Tridecafluorooctanol] has mp -33.09 °C.
O=C(O)CCNc1ccccc1[N+](=O)[O-] [3-[(2-nitrophenyl)amino]propanoic acid] has mp 145 °C.
O=S(=O)(O)CCO [2-Hydroxyethanesulfonic acid] has mp 36 °C.
COc1cc(N)c([N+](=O)[O-])cc1OC [4,5-dimethoxy-2-nitroaniline] has mp 175 °C.
O=C(O)CCc1ccncc1 [3-(pyridin-4-yl)propanoic acid] has mp 210 °C.